Laboratory results as given in US10533015B1, “Opioid receptor antagonist prodrugs” (Nirsum Laboratories, Inc., priority 2019, dated 2020).
Where two headings read alike, the source gives them in different places.

[1] = heating temp. 40 °C, obs. temp. 40 °C
[2] = heating temp. 60 °C, obs. temp. 25 °C
[3] = heating temp. 60 °C, obs. temp. 40 °C

## C=C1CC[C@@]2(O)C3Cc4ccc(OC(=O)OCCCCCCCCCCCC)c5c4[C@@]2(CCN3CC2CC2)[C@H]1O5 [Compound 6, (4aS,7aS,12bS)-3-(cyclopropylmethyl)-4a-hydroxy-7-methylene-2,3,4,4a,5,6,7,7a-octahydro-1H-4,12-methanobenzofuro[3,2-e]isoquinolin-9-yl dodecyl carbonate]
[1]
  Approximate Solubility (mg/mL) in Excipient: Cottonseed oil: >420.8 mg/mL

## C=C1CC[C@@]2(O)C3Cc4ccc(OC(=O)CCCCCCC/C=C/CCCCCCCC)c5c4[C@@]2(CCN3CC2CC2)[C@H]1O5 [Compound 15, (4aS,7aS,12bS)-3-(cyclopropylmethyl)-4a-hydroxy-7-methylene-2,3,4,4a,5,6,7,7a-octahydro-1H-4,12-methanobenzofuro[3,2-e]isoquinolin-9-yl (E)-octadec-9-enoate]
[2]
  Approximate Solubility (mg/mL) in Excipient: Sesame oil: >403.94 mg/mL
[3]
  Approximate Solubility (mg/mL) in Excipient: Sesame oil: >404 mg/mL

## C=C1CC[C@@]2(O)C3Cc4ccc(OCOC(=O)OCCCCCCCCCCCCCC)c5c4[C@@]2(CCN3CC2CC2)[C@H]1O5 [Compound 25, (((4aS,7aS,12bS)-3-(cyclopropylmethyl)-4a-hydroxy-7-methylene-2,3,4,4a,5,6,7,7a-octahydro-1H-4,12-methanobenzofuro[3,2-e]isoquinolin-9-yl)oxy)methyl tetradecyl carbonate]
[2]
  Approximate Solubility (mg/mL) in Excipient: Sesame oil: >404 mg/mL

## C=C1CC[C@@]2(O)C3Cc4ccc(OCOC(=O)OCCCCCCCCCCCCCCCC)c5c4[C@@]2(CCN3CC2CC2)[C@H]1O5 [Compound 34, (((4aS,7aS,12bS)-3-(cyclopropylmethyl)-4a-hydroxy-7-methylene-2,3,4,4a,5,6,7,7a-octahydro-1H-4,12-methanobenzofuro[3,2-e]isoquinolin-9-yl)oxy)methyl hexadecyl carbonate]
[2]
  Approximate Solubility (mg/mL) in Excipient: Cottonseed oil: >404 mg/mL
  Approximate Solubility (mg/mL) in Excipient: Sesame oil: >405 mg/mL

## C=C1CC[C@@]2(O)C3Cc4ccc(OC(=O)CCCCCCC/C=C\C/C=C\CCCCC)c5c4[C@@]2(CCN3CC2CC2)[C@H]1O5 [Compound 37, (4aS,7aS,12bS)-3-(cyclopropylmethyl)-4a-hydroxy-7-methylene-2,3,4,4a,5,6,7,7a-octahydro-1H-4,12-methanobenzofuro[3,2-e]isoquinolin-9-yl (9Z,12Z)-octadeca-9,12-dienoate]
[1]
  Approximate Solubility (mg/mL) in Excipient: Cottonseed oil: >405.3 mg/mL

## CCCCCCCCCCCCCCCCOC(=O)OCOc1ccc2c3c1O[C@H]1C(=O)CC[C@@]4(O)C(C2)N(CC2CC2)CC[C@]314 [Compound 47, (((4aS,7aR,12bS)-3-(cyclopropylmethyl)-4a-hydroxy-7-oxo-2,3,4,4a,5,6,7,7a-octahydro-1H-4,12-methanobenzofuro[3,2-e]isoquinolin-9-yl)oxy)methyl hexadecyl carbonate]
[2]
  Approximate Solubility (mg/mL) in Excipient: Sesame oil: >404.9 mg/mL

## CCCCCCCCCCCC(=O)OCOc1ccc2c3c1O[C@H]1C(=O)CC[C@@]4(O)C(C2)N(CC2CC2)CC[C@]314 [Compound 48, (((4aS,7aR,12bS)-3-(cyclopropylmethyl)-4a-hydroxy-7-oxo-2,3,4,4a,5,6,7,7a-octahydro-1H-4,12-methanobenzofuro[3,2-e]isoquinolin-9-yl)oxy)methyl dodecanoate]
[2]
  Approximate Solubility (mg/mL) in Excipient: Sesame oil: >404.8 mg/mL

## CCCCC/C=C\C/C=C\CCCCCCCC(=O)Oc1ccc2c3c1O[C@H]1C(=O)CC[C@@]4(O)C(C2)N(CC2CC2)CC[C@]314 [Compound 53, (4aS,7aR,12bS)-3-(cyclopropylmethyl)-4a-hydroxy-7-oxo-2,3,4,4a,5,6,7,7a-octahydro-1H-4,12-methanobenzofuro[3,2-e]isoquinolin-9-yl (9Z,12Z)-octadeca-9,12-di.enoate]
[3]
  Approximate Solubility (mg/mL) in Excipient: Cottonseed oil: >403.8 mg/mL
Ethanol, heating temp. 60 °C, obs. temp. 40 °C
  Approximate Solubility (mg/mL) in Excipient: Ethanol: >404 mg/mL
